This assay deals with M2 cells. The assay is described as follows: Inhibition of osteogenic differentiation of M2 cells by oxidative stress (XXO, MM-LDL): blocking, protection and rescue. It is filed as cell-based, mouse. Conditions: pretreatment 48 hours, 250 ng/ml (data not shown). As for the experimental part: Cell Culture—M2-10B4 mouse marrow stromal cell line (American Type Culture Collection, “ATCC”, Rockville, Md. USA) was derived from bone marrow stromal cells of a (C57BU6J x C3H/HeJ) F1 mouse, and supports human and murine myelopoieses in long-term cultures (as per ATCC). These cells were cultured in RPMI 1640 containing 10% heat-inactivated FBS, and supplemented with 1 mM sodium pyruvate, 100 U/mL penicillin, and 100 U/ml streptomycin (all from Irvine Scientific). The osteogenic medium for these studies consisted of RPMI 1640 with all supplements described above to which 5% FBS, 25 μg/ml ascorbate and 3 mM beta-glycerophosphate were also added. […]
The effect of oxysterols on xanthine/xanthine oxidase inhibition of osteoblast marker expression in marrow stromal cells was tested. […] After 6 days, alkaline phosphatase activity in whole cell extracts was measured for each treatment group.
The effect of oxysterols on minimally oxidized LDL inhibition of osteoblast marker expression in marrow stromal cells was tested. […] After 6 days, alkaline phosphatase activity in whole cell extracts was measured. […] After 8 days, total RNA from duplicate samples was isolated and analyzed for osteocalcin or 18S rRNA expression by Northern blotting. […]

B1: rhBMP2: recombinant human BMP2 from R&D Systems (protein, UniProt P12643 283-396, looked up)
Bone morphogenetic protein 2: QAKHKQRKRLKSSCKRHPLYVDFSDVGWNDWIVAPPGYHAFYCHGECPFPLADHLNSTNHAIVQTLVNSVNSKIPKACCVPTELSAISMLYLDENEKVVLKNYQDMVVEGCGCR
On to B1, for which the “protection from the adverse effects of oxidative stress on osteogenic differentiation” value is given as “protected”.

(Values after US20090220562A1, “Osteogenic and anti-adipogenic oxysterols” (priority 2005, published 2009).)
